Drawing on ChEMBL document CHEMBL1126910, “18F-labeled benzamides for studying the dopamine D2 receptor with positron emission tomography” (J Med Chem, 1993), this text covers logP and Ki for three molecules.

Amino acid sequences for entries named in this document (tags omitted).
UniProt P61169, whole entry: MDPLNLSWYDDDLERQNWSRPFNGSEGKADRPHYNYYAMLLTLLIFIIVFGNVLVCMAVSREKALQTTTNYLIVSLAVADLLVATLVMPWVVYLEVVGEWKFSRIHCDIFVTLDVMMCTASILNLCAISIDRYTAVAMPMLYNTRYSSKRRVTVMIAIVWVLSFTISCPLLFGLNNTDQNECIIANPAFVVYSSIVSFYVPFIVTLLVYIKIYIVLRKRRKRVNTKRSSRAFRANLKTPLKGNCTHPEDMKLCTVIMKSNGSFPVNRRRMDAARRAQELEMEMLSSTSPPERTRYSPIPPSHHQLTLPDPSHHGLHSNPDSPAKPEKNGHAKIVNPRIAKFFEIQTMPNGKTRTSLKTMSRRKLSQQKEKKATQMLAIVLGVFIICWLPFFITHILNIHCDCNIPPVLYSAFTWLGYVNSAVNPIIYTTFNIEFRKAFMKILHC

Data set [1] can be described thus: Partition coefficient (logP). The class given is physicochemical. The settings on record: octanol/water.
The target in a further data set is D(2) dopamine receptor (Rattus norvegicus, UniProt P61169). Description: Inhibition of [125I]- NCQ 298 binding to D2 receptor of rat striatal tissue. It counts as tissue-based, Striatum.

As for `COc1cc(N)c(Cl)cc1C(=O)NC1CCN(Cc2ccc(F)cc2)CC1`, the logP in data set [1] is 2.98. The molecule also gave a Ki on D(2) dopamine receptor of 0.95 nM.

Turning to `COc1cc(Br)cc(C(=O)NC2CC3CCCC(C2)N3Cc2ccc(F)cc2)c1OC` (centres undefined), the logP in data set [1] was 3.87.

Consider `COc1cc(Br)cc(C(=O)NC2CCN(Cc3ccc(F)cc3)CC2)c1OC`, for which, in data set [1], the logP was determined as 4.
